According to the NIST ThermoML archive (doi:10.1016/j.jct.2016.01.017):

Assay: activity coefficient (dimensionless); of the first substance listed, at infinite dilution; xn = mol fraction of the nth substance listed
Settings: 100 kPa, Liquid, Chromatography, x1 = 0

CCCCOCCCC [dibutyl ether] + CCCC[n+]1ccc(C#N)cc1.O=S(=O)([N-]S(=O)(=O)C(F)(F)F)C(F)(F)F
Settings	activity coefficient
308.15 K	19.3
318.15 K	18.6
328.15 K	18
338.15 K	17.4
348.15 K	16.8
358.15 K	16.3
368.15 K	15.9
